Patent US11414431B2, “Substituted pyrazolo[1,5-a]pyrimidines as TYK2 inhibitors” (Nimbus Lakshmi, Inc., priority 2018, dated 2022)

The chains behind the UniProt entries cited, without tags or fusion partners. Residues count along the entry.
UniProt P29597, 556-888: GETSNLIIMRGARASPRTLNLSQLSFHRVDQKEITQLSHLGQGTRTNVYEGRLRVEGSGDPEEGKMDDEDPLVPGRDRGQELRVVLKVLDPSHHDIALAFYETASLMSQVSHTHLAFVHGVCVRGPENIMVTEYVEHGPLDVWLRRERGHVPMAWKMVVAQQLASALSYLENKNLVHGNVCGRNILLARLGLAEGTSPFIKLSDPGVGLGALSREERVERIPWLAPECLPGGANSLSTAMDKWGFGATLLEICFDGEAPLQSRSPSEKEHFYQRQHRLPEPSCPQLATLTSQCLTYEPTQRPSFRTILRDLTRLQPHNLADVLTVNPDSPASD

Molecular target: human TYK2 (JH2domain-pseudokinase) (Homo sapiens (Human), UniProt P29597)
Test: TYK2 JH2 Domain Binding Assay (KINOMEscan)
Conditions: 11-point 3-fold dilution, top concentration 30,000 nM, duplicate; read-out: hTYK2_JH2_Binding (Kd; nM)

`CNc1cc(Nc2cccn(C3CC(F)(F)C3)c2=O)nc2c(C(=O)N[C@@H]3CCC[C@@H](O)C3)cnn12` [Compound I-62, 5-((1-(3,3-Difluorocyclobutyl)-2-oxo-1,2-dihydropyridin-3-yl)amino)-N-((1R,3R)-3-hydroxycyclohexyl)-7-(methylamino)pyrazolo[1,5-a]pyrimidine-3-carboxamide] showed a Kd of less than 0.2 nM.
